Measured values: patent US8686126B2, “HBV drug resistance methods” (priority 2002, dated 2014)

System: HBV
Test: HBV DNA levels in serum of HBV-infected patient No. 7 (liquid-hybridization assay, Digene)
Format: in vivo, human

IFN: interferon-alpha, licensed treatment for chronic hepatitis B
HBV DNA level (at the end of IFN treatment (5 MU/TIW, 8 months), one patient): 74 pg/mL | virological response / HBV replication (during treatment, one patient (IFN 5 MU/TIW; lamivudine 150 mg/day; lamivudine plus IFN 9 MU/TIW)): did not show an ALT (alanine amino-transferase) decrease or virological response
